Reference: PMC3446843 (Toxicological Sciences, 2012)

Tested on: isolated mouse liver mitochondria
Test: Mitochondrial swelling
Details: without Ca2+ pulse

- induction of mitochondrial swelling (in words): unable to induce
SMILES: O=C(O)Cc1ccccc1Nc1c(Cl)cccc1Cl [Diclofenac]
